The target of this assay is Sodium-dependent dopamine transporter (Rattus norvegicus, UniProt P23977). Put plainly: Inhibitory activity against Dopamine transporter using 0.5 nM [3H]WIN-35428 as radioligand.

Chains of the proteins cited; added tags and fusions are not shown.
UniProt P23977, whole entry: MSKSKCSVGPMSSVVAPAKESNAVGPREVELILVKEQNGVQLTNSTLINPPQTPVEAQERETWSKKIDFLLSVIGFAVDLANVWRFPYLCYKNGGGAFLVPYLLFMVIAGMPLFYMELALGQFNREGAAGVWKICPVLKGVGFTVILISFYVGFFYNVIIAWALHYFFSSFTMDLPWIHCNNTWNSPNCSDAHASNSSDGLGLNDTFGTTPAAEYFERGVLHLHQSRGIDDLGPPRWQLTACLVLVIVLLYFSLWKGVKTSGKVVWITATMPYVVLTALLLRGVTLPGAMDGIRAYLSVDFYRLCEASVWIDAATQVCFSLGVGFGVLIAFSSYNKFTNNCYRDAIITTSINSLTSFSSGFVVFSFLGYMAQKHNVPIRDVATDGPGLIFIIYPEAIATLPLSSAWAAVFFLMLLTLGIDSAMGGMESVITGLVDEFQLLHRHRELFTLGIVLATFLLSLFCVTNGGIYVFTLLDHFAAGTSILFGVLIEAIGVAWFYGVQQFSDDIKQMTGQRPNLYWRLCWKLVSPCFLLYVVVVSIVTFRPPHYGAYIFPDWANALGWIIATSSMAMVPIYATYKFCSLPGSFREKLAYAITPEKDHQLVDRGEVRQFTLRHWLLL

One may read the IC50 as the concentration at which inhibition is half-maximal. The compound `CN1[C@@H]2CC[C@H]1[C@H](c1ccccc1)[C@H](c1ccccc1)C2` (racemic) gave a half-maximal inhibitory concentration (IC50) of 1270 nM.

For the origin of these results see ChEMBL document CHEMBL1129994, “Synthesis and transporter binding properties of 2,3-diphenyltropane stereoisomers. Comparison to 3beta-phenyltropane-2beta-carboxylic acid esters” (J Med Chem, 1997).
